Laboratory results as given in ChEMBL document CHEMBL4425113, “Chromenopyrazole, a Versatile Cannabinoid Scaffold with in Vivo Activity in a Model of Multiple Sclerosis” (J Med Chem, 2016).

Chains of the proteins cited; added tags and fusions are not shown.
UniProt P34972, whole entry: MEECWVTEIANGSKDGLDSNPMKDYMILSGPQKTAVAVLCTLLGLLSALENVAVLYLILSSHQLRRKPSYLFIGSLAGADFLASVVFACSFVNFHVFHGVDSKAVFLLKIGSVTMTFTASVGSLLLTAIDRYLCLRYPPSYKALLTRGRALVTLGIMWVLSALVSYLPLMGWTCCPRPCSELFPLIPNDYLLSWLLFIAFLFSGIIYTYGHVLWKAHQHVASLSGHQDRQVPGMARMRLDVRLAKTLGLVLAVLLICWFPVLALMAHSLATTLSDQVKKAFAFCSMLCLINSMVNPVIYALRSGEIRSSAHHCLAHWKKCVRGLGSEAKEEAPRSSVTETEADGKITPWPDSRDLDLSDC

Legend:
Cannabinoid receptor 2 [1] = biological target: Cannabinoid receptor 2 (Homo sapiens, UniProt P34972); assay: Agonist activity at human CB2 receptor expressed in HEK293 cell membranes assessed as induction of [35S]-GTPgammaS binding after 60 mins by liquid scintillation spectrometric method; type: functional
Cannabinoid receptor 2 [2] = biological target: T1, Cannabinoid receptor 2 (Rattus norvegicus, UniProt Q9QZN9)
T1 sequence (Q9QZN9 whole entry): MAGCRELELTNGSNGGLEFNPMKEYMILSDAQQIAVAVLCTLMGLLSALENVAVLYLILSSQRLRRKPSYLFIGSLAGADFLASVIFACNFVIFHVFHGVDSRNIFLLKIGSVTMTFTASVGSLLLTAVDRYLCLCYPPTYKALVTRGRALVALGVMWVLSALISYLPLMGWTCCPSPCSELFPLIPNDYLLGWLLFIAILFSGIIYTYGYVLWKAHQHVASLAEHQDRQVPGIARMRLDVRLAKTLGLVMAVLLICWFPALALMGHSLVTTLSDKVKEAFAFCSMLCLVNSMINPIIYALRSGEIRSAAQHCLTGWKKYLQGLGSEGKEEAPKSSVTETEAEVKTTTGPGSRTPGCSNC

## CCCCCCC(C)(C)c1cc(OC)c([C@H]2C=C(CO)[C@@H]3C[C@H]2C3(C)C)c(OC)c1
Cannabinoid receptor 2 [1]
  EC50: 64.5 nM
Cannabinoid receptor 2 [2]
  Ki: 22.7 nM
